Data as given in article PMC3466219 (PLoS ONE, 2012).

Chains of the proteins cited; added tags and fusions are not shown. Residues count along the entry.
UniProt Q92831, whole entry, species assumed: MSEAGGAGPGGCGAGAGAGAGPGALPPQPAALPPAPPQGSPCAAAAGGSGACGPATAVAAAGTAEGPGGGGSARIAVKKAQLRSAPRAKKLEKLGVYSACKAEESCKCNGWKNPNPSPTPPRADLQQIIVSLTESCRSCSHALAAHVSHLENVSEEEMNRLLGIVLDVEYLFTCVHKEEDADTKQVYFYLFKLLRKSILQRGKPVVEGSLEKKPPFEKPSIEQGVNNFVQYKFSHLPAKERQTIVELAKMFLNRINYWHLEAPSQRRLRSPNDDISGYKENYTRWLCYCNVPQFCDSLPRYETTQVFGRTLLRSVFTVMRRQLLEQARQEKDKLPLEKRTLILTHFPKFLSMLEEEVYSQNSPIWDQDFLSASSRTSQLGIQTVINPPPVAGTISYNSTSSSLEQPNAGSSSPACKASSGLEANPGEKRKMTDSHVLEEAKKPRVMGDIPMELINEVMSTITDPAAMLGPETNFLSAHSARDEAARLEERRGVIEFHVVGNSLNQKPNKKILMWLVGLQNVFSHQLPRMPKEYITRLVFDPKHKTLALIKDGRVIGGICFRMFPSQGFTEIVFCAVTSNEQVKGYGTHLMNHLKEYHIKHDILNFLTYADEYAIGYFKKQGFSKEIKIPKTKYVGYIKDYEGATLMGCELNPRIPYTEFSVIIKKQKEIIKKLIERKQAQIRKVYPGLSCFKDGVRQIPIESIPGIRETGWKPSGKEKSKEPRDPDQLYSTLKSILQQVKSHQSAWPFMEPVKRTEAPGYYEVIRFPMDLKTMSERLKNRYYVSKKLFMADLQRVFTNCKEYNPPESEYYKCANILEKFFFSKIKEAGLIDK
UniProt Q92993, whole entry: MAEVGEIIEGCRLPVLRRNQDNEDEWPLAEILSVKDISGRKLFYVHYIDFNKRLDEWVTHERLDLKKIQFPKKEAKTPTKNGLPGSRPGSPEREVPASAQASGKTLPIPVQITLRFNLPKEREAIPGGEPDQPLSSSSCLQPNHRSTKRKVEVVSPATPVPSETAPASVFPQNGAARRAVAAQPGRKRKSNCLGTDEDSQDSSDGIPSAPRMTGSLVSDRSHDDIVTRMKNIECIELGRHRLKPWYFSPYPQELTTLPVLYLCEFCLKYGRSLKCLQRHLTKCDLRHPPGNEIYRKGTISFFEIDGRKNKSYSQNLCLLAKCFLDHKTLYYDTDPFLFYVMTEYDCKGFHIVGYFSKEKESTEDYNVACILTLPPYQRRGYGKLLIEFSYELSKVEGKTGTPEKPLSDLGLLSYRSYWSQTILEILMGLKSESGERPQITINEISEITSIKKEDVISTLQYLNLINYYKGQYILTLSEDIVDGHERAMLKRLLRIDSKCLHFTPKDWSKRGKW
UniProt Q92830, whole entry, species assumed: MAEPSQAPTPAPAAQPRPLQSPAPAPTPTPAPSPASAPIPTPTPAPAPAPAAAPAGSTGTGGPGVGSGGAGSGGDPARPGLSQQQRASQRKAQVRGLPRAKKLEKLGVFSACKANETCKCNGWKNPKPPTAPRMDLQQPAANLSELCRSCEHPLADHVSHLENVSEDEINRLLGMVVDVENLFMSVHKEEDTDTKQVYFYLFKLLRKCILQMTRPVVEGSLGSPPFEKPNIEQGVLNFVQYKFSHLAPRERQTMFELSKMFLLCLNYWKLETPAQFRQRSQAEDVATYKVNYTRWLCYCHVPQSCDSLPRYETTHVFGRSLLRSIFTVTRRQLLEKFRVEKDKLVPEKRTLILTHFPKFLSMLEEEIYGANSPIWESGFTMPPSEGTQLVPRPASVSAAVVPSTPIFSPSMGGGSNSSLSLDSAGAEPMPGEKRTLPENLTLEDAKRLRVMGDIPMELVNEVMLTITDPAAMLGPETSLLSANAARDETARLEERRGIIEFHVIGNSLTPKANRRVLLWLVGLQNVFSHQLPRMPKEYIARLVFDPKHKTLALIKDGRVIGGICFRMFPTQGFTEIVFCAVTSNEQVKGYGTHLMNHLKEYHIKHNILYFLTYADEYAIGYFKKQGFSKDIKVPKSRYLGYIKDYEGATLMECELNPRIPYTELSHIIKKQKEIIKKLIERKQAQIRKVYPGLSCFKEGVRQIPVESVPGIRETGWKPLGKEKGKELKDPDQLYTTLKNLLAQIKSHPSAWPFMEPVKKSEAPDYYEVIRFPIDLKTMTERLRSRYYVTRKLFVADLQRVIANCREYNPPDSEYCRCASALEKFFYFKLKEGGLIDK
UniProt Q09472, 1287-1663 limits assumed: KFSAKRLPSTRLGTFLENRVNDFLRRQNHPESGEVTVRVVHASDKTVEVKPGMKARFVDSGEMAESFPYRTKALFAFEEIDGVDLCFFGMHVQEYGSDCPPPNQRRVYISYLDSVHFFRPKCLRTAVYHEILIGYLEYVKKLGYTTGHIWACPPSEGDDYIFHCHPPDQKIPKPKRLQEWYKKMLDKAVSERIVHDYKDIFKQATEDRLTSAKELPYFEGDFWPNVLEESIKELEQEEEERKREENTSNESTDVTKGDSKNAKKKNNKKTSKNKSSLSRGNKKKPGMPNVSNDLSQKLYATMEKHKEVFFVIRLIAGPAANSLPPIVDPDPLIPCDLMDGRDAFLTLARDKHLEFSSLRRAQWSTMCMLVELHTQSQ

Assays:
PCAF = biological target: T1, PCAF (Homo sapiens, UniProt Q92831); assay: In vitro HAT assay, PCAF; assay type: biochemical
T1 construct: GST; made in house; host or cells: XA90 Escherichia coli

LNCaP-AI cells [1] = assay: cells; conditions: 72 h
LNCaP cells [2] = system: LNCaP cells
Tip60 = Tip60 (Homo sapiens, UniProt Q92993); assay: In vitro HAT assay, Tip60
[3] = system: Tip60 levels in LNCaP cells; assay type: cell-based
[4] = system: panel of prostate cancer cell lines; assay: cells; conditions: read-out: 50% growth inhibition
LNCaP-CdxR = assay: cells; conditions: 72 h
[5] = system: acetylated histone H4K16, H3K14 and H4K8 in LNCaP cells; assay: Western blotting of histone acetylation in LNCaP cells
LNCaP-AI cells [6] = system: LNCaP-AI cells
[7] = system: pATM and Tip60 levels in LNCaP cells
PC3 cells = assay: cells; conditions: Homo sapiens, PC-3, 72 h
[8] = system: γH2AX in LNCaP-CdxR cells
GCN5 = GCN5 (Homo sapiens, UniProt Q92830); assay: In vitro HAT assay, GCN5; assay type: biochemical
CWR22rv1 = assay: cells; conditions: CWR22Rv1, 72 h
[9] = system: caspase 3 and caspase 9 in LNCaP cells
LNCaP cells [10] = system: LNCaP cells; remark: listed apart in the source
p300 = p300 (Homo sapiens, UniProt Q09472); assay: In vitro HAT assay, p300; assay type: biochemical

SMILES: c1cc(SSc2ccns2)sn1 [NU9056, 1,2-Bis(isothiazol-5-yl)disulfane]
- IC50 (PCAF): 30 µM and 36 µM
- GI50 (LNCaP-AI cells [1]): 16 µM
- colony forming ability (LNCaP cells [2]): reduced
- IC50 (Tip60; HAT IC50 Tip60): < 2 µM and 2 µM
- IC50 (Tip60; Tip60 IC50): < 2 µM and 2 µM
- Tip60 levels [3]: unaffected
- IC50 [4]: 8 to 27 µM
- GI50 (LNCaP-CdxR): 12 µM
- levels of acetylated histone H4K16, H3K14 and H4K8 [5]: decreased levels
- γH2AX formation after IR (γH2AX foci in 293T cells): still clearly enriched
- Sub-G1 population compared to LNCaP cells (LNCaP-AI cells [6]): significant increase
- Tip60 accumulation after IR [7]: did not demonstrate Tip60 accumulation
- pATM levels after IR [7]: decrease was much faster
- GI50 (PC3 cells): 27 µM
- γH2AX after IR [8]: significant difference
- IC50 (GCN5): > 100 µM
- GI50 (CWR22rv1): 7.5 µM
- Sub-G1 population compared to LNCaP cells (LNCaP-CdxR cells): not statistically significant
- caspase 3 and caspase 9 activation [9]: both caspase 3 and caspase 9 activation in a time- and concentration-dependent manner
- γH2AX foci after IR (γH2AX in LNCaP cells): significantly higher
- G1 or G2M cell cycle arrest (LNCaP cells [10]): only accumulation in the sub-G1 phase was seen
- sub-G1 population (induction of apoptosis) (LNCaP cells [10]): induction of apoptosis in a time- and concentration-dependent manner
- IC50 (p300): 60 µM and 58 µM

“And” between values parts separate entries of the source, which are not always exact repeats. Equal values may be shown once.
